Legend:
Settings in all cases: 4 hours; control incubation, same conditions
[1] = test system: trypsin; test: Polyamide stability to protease digestion, HPLC analysis (trypsin)
Protocol: (§1) The compounds produced in Examples 8 and 9 were separately dissolved at 1 mg/ml in a 1% ammonium bicarbonate solution. In separate tubes, these solutions were treated with trypsin, chymotrypsin and elastase (enzyme:substrate ratio 1:100, 37° C.). Aliquots (20 μl) were withdrawn at intervals and analyzed by HPLC.

[2] = test system: chymotrypsin; test: Polyamide stability to protease digestion, HPLC analysis (chymotrypsin)
Protocol: as §1

[3] = test system: elastase; test: Polyamide stability to protease digestion, HPLC analysis (elastase)
Protocol: as §1

insulin
extensive digestion: digestion by trypsin [1] | digestion by chymotrypsin [2] | digestion by elastase [3]
